According to PubChem BioAssay (NCI):
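A five-concentration, 48-hour dose response in 96-well plates underlies each endpoint, interpolated linearly between surrounding concentrations. GI50: concentration for 50% inhibition of growth. TGI marks complete inhibition of growth.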

Tests used:
Test in all cases: inhibition of tumour cell growth, NCI panel, 48 h
[1] = test system: KM12 colon
[2] = test system: T-47D breast
[3] = test system: UACC-62 melanoma
[4] = test system: A498 renal
[5] = test system: HOP-92 NSCLC
[6] = test system: HCT-116 colon
[7] = test system: MDA-MB-435
[8] = test system: OVCAR-4 ovarian
[9] = test system: NCI/ADR-RES ovarian
[10] = test system: ACHN renal
[11] = test system: RXF 393 renal
[12] = test system: K-562 leukemia
[13] = test system: SNB-75 CNS
[14] = test system: MDA-MB-231 breast
[15] = test system: SW-620 colon
[16] = test system: EKVX NSCLC
[17] = test system: MOLT-4 leukemia
[18] = test system: M14 melanoma
[19] = test system: SF-268 CNS
[20] = test system: COLO 205 colon
[21] = test system: SF-539 CNS
[22] = test system: OVCAR-5 ovarian
[23] = test system: A549 NSCLC
[24] = test system: SK-MEL-5 melanoma
[25] = test system: RPMI-8226 leukemia
[26] = test system: UACC-257 melanoma
[27] = test system: PC-3 prostate
[28] = test system: SR leukemia
[29] = test system: 786-0 renal
[30] = test system: HL-60(TB) leukemia
[31] = test system: U251 CNS
[32] = test system: SK-OV-3 ovarian
[33] = test system: SF-295 CNS
[34] = test system: IGROV1 ovarian
[35] = test system: OVCAR-8 ovarian
[36] = test system: SNB-19 CNS
[37] = test system: HCC-2998 colon
[38] = test system: BT-549 breast
[39] = test system: UO-31 renal
[40] = test system: SK-MEL-2 melanoma
[41] = test system: NCI-H460 lung
[42] = test system: HS 578T breast
[43] = test system: HOP-62 NSCLC
[44] = test system: NCI-H226 lung
[45] = test system: CAKI-1 renal
[46] = test system: HT29 colon
[47] = test system: SN12C renal
[48] = test system: MCF7 breast
[49] = test system: HCT-15 colon
[50] = test system: LOX IMVI melanoma
[51] = test system: SK-MEL-28 melanoma
[52] = test system: TK-10 renal
[53] = test system: OVCAR-3 ovarian
[54] = test system: DU-145 prostate
[55] = test system: CCRF-CEM leukemia
[56] = test system: NCI-H522 lung

SMILES: CS(=O)(=O)c1ccc(-c2nc(NCc3cccs3)cc(C(F)(F)F)n2)cc1
- GI50 [1]: > 100 µM
- TGI [1]: > 100 µM
- GI50 [2]: 6.27 µM
- TGI [2]: > 100 µM
- GI50 [3]: 51.3 µM
- TGI [3]: > 100 µM
- GI50 [4]: > 100 µM
- TGI [4]: > 100 µM
- GI50 [5]: 48 µM
- TGI [5]: > 100 µM
- GI50 [6]: > 100 µM
- TGI [6]: > 100 µM
- GI50 [7]: > 100 µM
- TGI [7]: > 100 µM
- GI50 [8]: > 100 µM
- TGI [8]: > 100 µM
- GI50 [9]: > 100 µM
- TGI [9]: > 100 µM
- GI50 [10]: 27.6 µM
- TGI [10]: > 100 µM
- GI50 [11]: 28.4 µM
- TGI [11]: > 100 µM
- GI50 [12]: 22.4 µM
- TGI [12]: > 100 µM
- GI50 [13]: 44.6 µM
- TGI [13]: 93.4 µM
- GI50 [14]: 17.2 µM
- TGI [14]: > 100 µM
- GI50 [15]: > 100 µM
- TGI [15]: > 100 µM
- GI50 [16]: > 100 µM
- TGI [16]: > 100 µM
- GI50 [17]: > 100 µM
- TGI [17]: > 100 µM
- GI50 [18]: > 100 µM
- TGI [18]: > 100 µM
- GI50 [19]: > 100 µM
- TGI [19]: > 100 µM
- GI50 [20]: > 100 µM
- TGI [20]: > 100 µM
- GI50 [21]: > 100 µM
- TGI [21]: > 100 µM
- GI50 [22]: > 100 µM
- TGI [22]: > 100 µM
- GI50 [23]: > 100 µM
- TGI [23]: > 100 µM
- GI50 [24]: > 100 µM
- TGI [24]: > 100 µM
- GI50 [25]: 46.1 µM
- TGI [25]: > 100 µM
- GI50 [26]: 49.5 µM
- TGI [26]: > 100 µM
- GI50 [27]: 51.1 µM
- TGI [27]: > 100 µM
- GI50 [28]: 32.7 µM
- TGI [28]: > 100 µM
- GI50 [29]: 55.8 µM
- TGI [29]: > 100 µM
- GI50 [30]: > 100 µM
- TGI [30]: > 100 µM
- GI50 [31]: 31 µM
- TGI [31]: > 100 µM
- GI50 [32]: 19.4 µM
- TGI [32]: 90.2 µM
- GI50 [33]: 18.6 µM
- TGI [33]: > 100 µM
- GI50 [34]: 89.7 µM
- TGI [34]: > 100 µM
- GI50 [35]: 97 µM
- TGI [35]: > 100 µM
- GI50 [36]: 43.2 µM
- TGI [36]: > 100 µM
- GI50 [37]: > 100 µM
- TGI [37]: > 100 µM
- GI50 [38]: 94.7 µM
- TGI [38]: > 100 µM
- GI50 [39]: 37.5 µM
- TGI [39]: > 100 µM
- GI50 [40]: > 100 µM
- TGI [40]: > 100 µM
- GI50 [41]: > 100 µM
- TGI [41]: > 100 µM
- GI50 [42]: 63.2 µM
- TGI [42]: > 100 µM
- GI50 [43]: 33.9 µM
- TGI [43]: > 100 µM
- GI50 [44]: > 100 µM
- TGI [44]: > 100 µM
- GI50 [45]: 33.7 µM
- TGI [45]: > 100 µM
- GI50 [46]: > 100 µM
- TGI [46]: > 100 µM
- GI50 [47]: > 100 µM
- TGI [47]: > 100 µM
- GI50 [48]: > 100 µM
- TGI [48]: > 100 µM
- GI50 [49]: > 100 µM
- TGI [49]: > 100 µM
- GI50 [50]: 78.7 µM
- TGI [50]: > 100 µM
- GI50 [51]: > 100 µM
- TGI [51]: > 100 µM
- GI50 [52]: 1.39 µM
- TGI [52]: 64.8 µM
- GI50 [53]: 37.3 µM
- TGI [53]: > 100 µM
- GI50 [54]: 99.8 µM
- TGI [54]: > 100 µM
- GI50 [55]: > 100 µM
- TGI [55]: > 100 µM
- GI50 [56]: 23.1 µM
- TGI [56]: > 100 µM
